These results are taken from patent publication US7879817B2, “Hyaluronic acid derivative and drug containing the same” (priority 2004, dated 2011).

Read-outs that look alike come from different tables or passages of the source.

Data set [1] in a line: Appearance of the 1.0% by weight solution in PBS. Type of data set: physicochemical.
The next data set is described as follows: Filter pass through test. Type of data set: physicochemical. Also noted: key: A: 2 ml or more was passed; B: less than 2 ml was passed; C: none passed. Here is the method:
PBS in which each substance to be tested was dissolved to a concentration of 1.0% by weight was prepared. At a temperature of 24° C. under pressure of 5.0 kg/cm^2, each solution of the substances to be tested prepared in the following examples was passed through a 0.45 μm porous filter (25 mm in diameter), and the passed amount (ml) per 1 minute was measured A case in which 2 ml or more was passed is shown by “A”, and a case in which less than 2 ml was passed by “B”, and a case in which none passed by “C”.

The nature of data set [2]: Sustained release property in the rabbit knee joint (residual ratio in synovial fluid and synovium). The note with it: intra-articular.
Setting [3] is: dissolved in PBS to 1.0% by weight.
[4] abbreviates: 1.0% by weight in PBS, 0.45 μm porous filter (25 mm in diameter), 24° C., 5.0 kg/cm^2.

For “3-amino-1,2-propanediol-ketoprofen-introduced Hyaluronic Acid [Example 30]”, in data set [1] (setting [3]), the “appearance of the solution” value was “colorless and transparent liquid”. In addition, the “filter pass through test (passed amount per 1 minute)” value in “Filter pass through test” (setting [4]) is on record as “A (2 ml or more was passed)”.
With “Aminopropanol-ibuprofen-Introduced Sodium Hyaluronate [Example 7]”, in data set [1] (setting [3]), the “appearance of the solution” value was “colorless and transparent liquid”.
On to “Serinol-ketoprofen-Introduced Hyaluronic Acid [Example 26]”, for which the “appearance of the solution” value in data set [1] (setting [3]) is “colorless and transparent liquid”. For the same substance, the “filter pass through test (passed amount per 1 minute)” value in the data set “Filter pass through test” is recorded as “A (key: A: 2 ml or more was passed; B: less than 2 ml was passed; C: none passed)”.
Turning to “Aminopropanol-naproxen-Introduced Sodium Hyaluronate [Example 5]”, the “appearance of the solution” value in data set [1] (setting [3]) was “colorless and transparent liquid”. The “filter pass through test (passed amount per 1 minute)” value in the data set “Filter pass through test” (setting [4]) is given as “A (2 ml or more was passed)”.
Take “Aminopropanol-ketoprofen-Introduced Sodium Hyaluronate [Example 2]”: the “appearance of the solution” value in data set [1] (setting [3]) is “colorless and transparent liquid”. For the same substance, in the data set “Filter pass through test”, the “filter pass through test (passed amount per 1 minute)” value is recorded as “A (key: A: 2 ml or more was passed; B: less than 2 ml was passed; C: none passed)”.
With “Glycine-tris(hydroxymethyl)aminomethane-ketoprofen-Introduced Hyaluronic Acid [Example 33]”, the “appearance of the solution” value in data set [1] was “colorless and transparent liquid”. Besides, the “filter pass through test (passed amount per 1 minute)” value in “Filter pass through test” was “A (key: A: 2 ml or more was passed; B: less than 2 ml was passed; C: none passed)”.
Take “2-amino-1,5-pentanediol-ketoprofen-Introduced Hyaluronic Acid [Example 28]”: in data set [1] (setting [3]), the “appearance of the solution” value is “colorless and transparent liquid”. Also, the “filter pass through test (passed amount per 1 minute)” value in “Filter pass through test” (setting [4]) is given as “A (2 ml or more was passed)”.
Regarding “Aminopropanol-ketoprofen-Introduced Sodium Hyaluronate [Example 3]”, the “appearance of the solution” value in data set [1] was “colorless and transparent liquid”. The “filter pass through test (passed amount per 1 minute)” value in “Filter pass through test” was “A (key: A: 2 ml or more was passed; B: less than 2 ml was passed; C: none passed)”.
Take “Aminopropanol-fenbufen-Introduced Hyaluronic Acid [Example 15]”: the “appearance of the solution” value in data set [1] (setting [3]) was “colorless and transparent liquid”.
“1% Aminopropanol-ketoprofen-Introduced Sodium Hyaluronate Solution [KP-HA]”: in data set [2], the “persistence of KP in the synovium” value was “KP was persistently maintained also in the synovium”. In addition, the “presence of KP in synovial fluid and synovium” value in data set [2] (after 4 days) was “the presence of KP was confirmed in both of the synovial fluid and synovium even after 4 days”.
Take “Aminopropanol-ketoprofen-Introduced Sodium Hyaluronate [Example 24]”: in the data set “Filter pass through test”, the “filter pass through test (passed amount per 1 minute)” value is listed as “C”.
